The target in the assay is SARM1 (Homo sapiens, UniProt Q6SZW1). In words: ARM-SAM-TIR SARM1 IC50 assay (NADase activity, NAD+ cleavage, RapidFire mass spectrometry). The following applies: read-out: SARM1 IC50; ARM-SAM-TIR lysate 5 μg/mL, 2 h pre-incubation with compound at room temperature, 5 μM NAD+, 2 hr incubation.

Amino acid sequences for entries named in this document (tags omitted). Chains listed by the source or under a name are the forms on record and can include a tag or linker. Residues count along the entry.
UniProt Q6SZW1, 28-724 with tags or gaps limits assumed: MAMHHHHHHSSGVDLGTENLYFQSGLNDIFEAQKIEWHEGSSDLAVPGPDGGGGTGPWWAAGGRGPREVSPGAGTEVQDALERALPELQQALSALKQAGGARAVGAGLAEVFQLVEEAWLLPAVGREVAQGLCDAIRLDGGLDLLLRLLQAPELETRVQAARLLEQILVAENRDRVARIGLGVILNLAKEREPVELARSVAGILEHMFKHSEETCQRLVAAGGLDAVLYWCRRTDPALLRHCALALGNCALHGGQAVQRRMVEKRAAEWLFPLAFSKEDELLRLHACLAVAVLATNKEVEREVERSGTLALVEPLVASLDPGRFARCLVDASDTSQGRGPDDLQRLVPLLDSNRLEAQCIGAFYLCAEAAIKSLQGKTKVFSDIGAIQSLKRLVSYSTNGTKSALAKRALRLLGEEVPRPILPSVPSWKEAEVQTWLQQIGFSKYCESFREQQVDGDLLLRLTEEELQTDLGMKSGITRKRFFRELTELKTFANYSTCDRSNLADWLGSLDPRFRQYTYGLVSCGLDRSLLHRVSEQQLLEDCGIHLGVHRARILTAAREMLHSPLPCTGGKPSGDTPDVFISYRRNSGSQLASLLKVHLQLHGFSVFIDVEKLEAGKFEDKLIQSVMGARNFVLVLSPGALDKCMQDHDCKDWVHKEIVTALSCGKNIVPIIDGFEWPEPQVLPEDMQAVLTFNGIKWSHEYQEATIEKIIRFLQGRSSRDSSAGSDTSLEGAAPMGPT

`O=C(NCc1ccc(Cl)nc1)c1cccc2c(-c3ccncc3)c[nH]c12`: the concentration for half-maximal inhibition (IC50) – broadly, the midpoint of a concentration-inhibition curve – was < 100 nM.

(Values after patent US12435084B2, “Indazole derivatives as inhibitors of SARM1” (Disarm Therapeutics, Inc., priority 2020, dated 2025).)
